Laboratory results as given in ChEMBL document CHEMBL1833847, “Identification of potent c-Src inhibitors strongly affecting the proliferation of human neuroblastoma cells” (Bioorg Med Chem Lett, 2011).

Tested on: SH-SY5Y
Assay: Antiproliferative activity against human SH-SY5Y cells assessed as cell viability after 72 hrs by XTT assay

Structure (SMILES): CC(C)(C)n1nc(-c2ccc(Cl)cc2)c2c(N)ncnc21
- Activity: Dose-dependent effect

Structure (SMILES): CSc1nc(Nc2ccccc2)c2cnn(CC(C)c3ccccc3)c2n1 (configuration not stated)
- Activity: Dose-dependent effect
